According to patent publication US12630604B2, “Methods of making chimeric antigen receptor-expressing cells” (Novartis AG, priority 2018, dated 2026):

Tests used:
[1] = test system: T cells; assay: T cell culture with cytokines after αCD3/αCD28 bead activation (expansion, size, viability); type: cell-based; settings: T cells activated with αCD3αCD28 beads at day 0 in presence of cytokine
Experimental: Previously frozen T cells were thawed and contacted with αCD3/αCD28 dynal beads (cell to bead ratio of 1 to 3) in the presence of indicated cytokines at day 0. From day 3, twice more T cell growth media (RPMI1640, 10% FBS, 2 mM L-glutamin, 100 μM non-essential amino acids, 1 mM sodium pyruvate, 10 mM Hepes, 55 μM β-mercaptoethanol, 10% FBS, and 100 U/ml of penicillin-streptomycin) was added to the plate with indicated cytokines (without cytokine, rhIL2 (501 U/ml, Novartis), IL6 (10 ng/ml, R&D systems), IL7 (10 ng/ml, Peprotech), IL15 (10 ng/ml, Peprotech), and IL21 (10 ng/ml, Peprotech)) at day 3, 5, 6, 9, 12, 15, and 18. Cells treated without cytokine, IL6, or IL21 were cultured until day 18 and cells treated with IL2, IL7, or IL15 were cultured until day 25.

[2] = test system: T cells; assay: T cell differentiation status by flow cytometry (CCR7/CD45RO), cytokine process; type: cell-based; settings: purified T cells cultured with cytokine 24 hours, no CD3/CD28 stimulation
Experimental: The cells were immunophenotyped for T cell differentiation status and transduction of the CAR was assessed using flow cytometry. The cells were washed, viability dye was added followed by the antibody cocktail (Table 20), and the plates were incubated for 20 minutes at room temperature. After the incubation, the cells were washed twice and fixed prior to being analyzed on the BD fortessa.

IL-2: cytokine, rhIL2 was tested. Which T cell expansion [1] did it give?
Its T cell expansion is “enhanced T cell expansion”.

What about the “maintenance of self-renewing / naïve T cells (CD45RO−CCR7+)” value [2] of the same substance?
Its value is “maintained self-renewing T cells in vitro”.
